Assay outcomes: PubChem BioAssay, ICCB-Longwood Screening Facility, Harvard Medical School
This excerpt belongs to a sample that is enriched for hits.
GIV-Gai inh: inhibitors of GIV peptide binding to Galpha-i3, primary screen, biochemical, fluorescence polarization, FITC-GIV GBA peptide, rat Galphai3 | Guanine nucleotide-binding protein G(i) subunit alpha-3 (Rattus norvegicus), P08753 | 90 min; hits give low values; scaled: aluminum fluoride 0%, vehicle 100% | percent of control (FP), % (test concentration not listed) | hit rate 0.42% among 210,000 | AID 1224905, 2016;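 active = replicate mean at 85% of control or lower, very high polarization wells dropped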;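 note: wells of about 15 µL received 100 nL stock; the first replicate is given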
HCMV NEC inh: disrupts HCMV UL50-UL53 complex binding. HTRF UL50-UL53 interaction, normalized percent inhibition. inhibition, % (test concentration not listed). actives 0.15% (n = 190,000); in the data active = inhibition above about 27%, passing the limit was not always enough
An asterisk follows results filed as active; . = no result given.

The chains behind the UniProt entries cited, without tags or fusion partners.
Guanine nucleotide-binding protein G(i) subunit alpha-3 (Rattus norvegicus), P08753, UniProt P08753, whole entry, looked up: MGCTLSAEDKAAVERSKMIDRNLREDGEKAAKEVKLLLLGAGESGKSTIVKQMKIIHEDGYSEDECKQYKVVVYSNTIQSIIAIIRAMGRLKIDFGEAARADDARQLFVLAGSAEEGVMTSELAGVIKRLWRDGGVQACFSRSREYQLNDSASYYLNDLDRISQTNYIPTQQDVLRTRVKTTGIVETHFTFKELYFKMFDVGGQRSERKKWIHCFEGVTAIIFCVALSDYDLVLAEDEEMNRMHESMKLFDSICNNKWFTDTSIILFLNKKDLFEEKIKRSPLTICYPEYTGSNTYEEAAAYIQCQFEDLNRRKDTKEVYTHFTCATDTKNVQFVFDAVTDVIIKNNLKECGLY

(1) CCn1ccc2c(cc(C(=O)NCc3cccnc3)n2C)c1=O
- GIV-Gai inh: 105
- HCMV NEC inh: .

(2) CC(C)(C)c1ccc(S(=O)(=O)N2CCCN(c3ccc(=O)n(-c4ccc(F)cc4)n3)CC2)cc1
- GIV-Gai inh: 107
- HCMV NEC inh: -4

(3) Cc1nc(CC(=O)Nc2nnc(C3CCCO3)s2)cs1 (configuration not stated)
- GIV-Gai inh: 106
- HCMV NEC inh: -17

(4) CCN(CC)C(=O)N1CCN(c2ccccc2)CC1
- GIV-Gai inh: 100
- HCMV NEC inh: -5

(5) COC(=O)c1c(NC(=O)c2ccc(Br)cc2)sc2c1CCN(C(C)C)C2
- GIV-Gai inh: -26*
- HCMV NEC inh: .

(6) CCOC(=O)c1c(NC(=O)c2ccc(Cl)cc2)sc2c1CCN(C(C)C)C2
- GIV-Gai inh: 186
- HCMV NEC inh: .

(7) CCN1/C(=C\C=C2C(=O)OC(C)(C)OC2=O)Sc2ccccc21
- GIV-Gai inh: -34*
- HCMV NEC inh: -25

(8) CCN1/C(=C/C2=CC(=O)CC(C)(C)C2)Sc2ccccc21
- GIV-Gai inh: -24*
- HCMV NEC inh: .

(9) CCN1/C(=C\C(=O)C2CC2)Sc2ccccc21
- GIV-Gai inh: 100
- HCMV NEC inh: -27

(10) CCN1C(=O)CCSc2ccccc21
- GIV-Gai inh: 104
- HCMV NEC inh: -41

(11) COC(=O)CSc1nc(-c2ccccc2)nc2c1Cc1cccc(OC)c1O2
- GIV-Gai inh: 105
- HCMV NEC inh: -1

(12) COc1cccc2c1Oc1nc(-c3ccccc3)nc(SCC(=O)N(C)c3ccccc3)c1C2
- GIV-Gai inh: -21*
- HCMV NEC inh: .

(13) COc1ccccc1N1CCN(Cc2cccc3ccccc23)CC1
- GIV-Gai inh: 102
- HCMV NEC inh: -16

(14) COc1cc(OC)c(OC)cc1CN1CCN(c2cccc(C)c2C)CC1
- GIV-Gai inh: 98
- HCMV NEC inh: 73*

(15) C=CCn1c(C)c(/C=C/C2=CCN(C)CC2)c2ccccc21
- GIV-Gai inh: -11*
- HCMV NEC inh: -66

(16) Cc1cc(N2CCCC2)ccc1/C=C/C1=CCN(C)CC1
- GIV-Gai inh: 113
- HCMV NEC inh: 35

(17) CSC1=N/C(=C\c2ccccc2)C(=O)S1
- GIV-Gai inh: 107
- HCMV NEC inh: -19

(18) CCN(CC)c1ccc(/C=C2\N=C(SC)SC2=O)cc1
- GIV-Gai inh: -78*
- HCMV NEC inh: -30

(19) Cn1c(SCc2ccc(-c3csnn3)cc2)nnc1C(F)(F)F
- GIV-Gai inh: 100
- HCMV NEC inh: -4

(20) C#CCN1C(=O)S/C(=C/C=C/c2ccc(N(C)C)cc2)C1=O
- GIV-Gai inh: -61*
- HCMV NEC inh: -24

(21) CN1C(=O)/C(=C\C=C\c2ccc(N(C)C)cc2)SC1=S
- GIV-Gai inh: 126
- HCMV NEC inh: .

(22) Clc1cccc(C(c2nnc(-c3ccccc3)o2)N2CCN(c3ccccc3)CC2)c1 (configuration not stated)
- GIV-Gai inh: 109
- HCMV NEC inh: -12

(23) O=C(CC(=O)NC1CCCCC1)NC1CCCCC1
- GIV-Gai inh: .
- HCMV NEC inh: -26

(24) CCn1c(/N=C/c2ccccc2Cl)nc2ccccc21
- GIV-Gai inh: 104
- HCMV NEC inh: 72*

(25) CCCn1c(/N=C/c2ccccc2Cl)nc2ccccc21
- GIV-Gai inh: .
- HCMV NEC inh: 13

(26) OC[C@H]1OC([S-])[C@H](O)[C@@H](O)[C@@H]1O.[Au+] (some centres not stated)
- GIV-Gai inh: .
- HCMV NEC inh: 58*

(27) OCC1OC(Oc2ccccc2)C(O)C(O)C1O (configuration not stated)
- GIV-Gai inh: 102
- HCMV NEC inh: -2

(28) CC(C)OC(=O)c1ccc(COC(=O)CCc2nc3ccccc3[nH]c2=O)cc1
- GIV-Gai inh: 101
- HCMV NEC inh: -19

(29) CCCCC1=NN(C(=O)c2ccc(Br)cc2)C(O)(C(F)(F)F)C1 (configuration not stated)
- GIV-Gai inh: 104
- HCMV NEC inh: 0

(30) CN(C)c1ccc(C2=CC(C3CC3)=C(C#N)C(=C(C#N)C#N)N2)cc1
- GIV-Gai inh: 105
- HCMV NEC inh: 11

(31) COc1ccc(C2=CC(C3CC3)=C(C#N)C(=C(C#N)C#N)N2)cc1
- GIV-Gai inh: 65*
- HCMV NEC inh: -65

(32) O=C(N/N=C/c1cccc2c1OCCO2)c1ccc(CN2CCOCC2)cc1
- GIV-Gai inh: 101
- HCMV NEC inh: -56

(33) COc1ccc2ccccc2c1/C=C1/N=C(c2ccc(Cl)c([N+](=O)[O-])c2)OC1=O
- GIV-Gai inh: 101
- HCMV NEC inh: -24

(34) O=C1/C(=C\c2ccc(Br)o2)CC/C1=C/c1ccc(Br)o1
- GIV-Gai inh: 281
- HCMV NEC inh: .

(35) O=C1/C(=C/c2cc3ccccc3o2)CC/C1=C\c1cc2ccccc2o1
- GIV-Gai inh: -5.9*
- HCMV NEC inh: .

(36) O=C(c1ccccc1)N1CCN(CC(O)Cn2c3ccc(Br)cc3c3cc(Br)ccc32)CC1 (configuration not stated)
- GIV-Gai inh: 112
- HCMV NEC inh: .

(37) Cc1[nH]n(-c2ccccc2)c(=O)c1N=O
- GIV-Gai inh: .
- HCMV NEC inh: 38*

(38) Cc1[nH]n(-c2ccccc2)c(=O)c1/C=N/O
- GIV-Gai inh: 97
- HCMV NEC inh: -35

(39) Cc1ccc(Nc2cc3oc4cc(C)ccc4[nH]c3c3c(=O)c4ccccc4c(=O)c23)cc1
- GIV-Gai inh: 111
- HCMV NEC inh: 15

(40) CN(C)/C=C/C=C1\CC/C(=C\C=C\N(C)C)C1=O
- GIV-Gai inh: 155
- HCMV NEC inh: 21

(41) CN(C)/C=C/C=C1\CCc2ccccc2C1=O
- GIV-Gai inh: -73*
- HCMV NEC inh: .

(42) COc1ccc(N=Cc2sc3ccccc3c2O)cc1
- GIV-Gai inh: -32*
- HCMV NEC inh: .

(43) O=[N+]([O-])c1cccc(N=Cc2sc3ccccc3c2O)c1
- GIV-Gai inh: 107
- HCMV NEC inh: -24

(44) Cc1c(C(=O)Nc2ccccc2)sc2nc(-c3cc4ccccc4oc3=O)[nH]c(=O)c12
- GIV-Gai inh: 102
- HCMV NEC inh: 2

(45) Cc1ccc(NC(=O)c2sc3nc(-c4cc5ccccc5oc4=O)[nH]c(=O)c3c2C)c(C)c1
- GIV-Gai inh: 25*
- HCMV NEC inh: -9

Rewritten in transposed form: part of the list above
37: Cc1[nH]n(-c2ccccc2)c(=O)c1N=O
38: Cc1[nH]n(-c2ccccc2)c(=O)c1/C=N/O
39: Cc1ccc(Nc2cc3oc4cc(C)ccc4[nH]c3c3c(=O)c4ccccc4c(=O)c23)cc1
40: CN(C)/C=C/C=C1\CC/C(=C\C=C\N(C)C)C1=O
41: CN(C)/C=C/C=C1\CCc2ccccc2C1=O

| compound no. | 37 | 38 | 39 | 40 | 41 |
| --- | --- | --- | --- | --- | --- |
| GIV-Gai inh | . | 97 | 111 | 155 | -73* |
| HCMV NEC inh | 38* | -35 | 15 | 21 | . |

Continued.
(46) Cc1cc2nc(NCc3ccc4c(c3)OCO4)c(C(=O)OC(C)C)nc2cc1C
- GIV-Gai inh: 76*
- HCMV NEC inh: -23

(47) CCOC(=O)c1nc(NCc2ccc3c(c2)OCO3)c2ccccc2n1
- GIV-Gai inh: 102
- HCMV NEC inh: -17

(48) N=C1/C(=C\c2cn(CCOc3ccccc3Cl)c3ccccc23)C(=O)N=C2SC=NN12
- GIV-Gai inh: 11*
- HCMV NEC inh: 0

(49) Cc1ccc(C)c(OCCn2cc(/C=C3\C(=N)N4N=C(S(C)(=O)=O)SC4=NC3=O)c3ccccc32)c1
- GIV-Gai inh: 100
- HCMV NEC inh: -19

(50) Cc1cc(C(=O)Cn2cc(S(=O)(=O)N(C)C)ccc2=O)c(C)n1C1CCS(=O)(=O)C1 (configuration not stated)
- GIV-Gai inh: .
- HCMV NEC inh: -2

(51) O=C(/C=N/O)Nc1cccc(C(F)(F)F)c1
- GIV-Gai inh: .
- HCMV NEC inh: 0

(52) CC(C)CN1C(=O)/C(=C/c2c(N3CCN(CCO)CC3)nc3ccccn3c2=O)SC1=S
- GIV-Gai inh: 41*
- HCMV NEC inh: -86

(53) O=C(O)CCCN1C(=O)/C(=C/c2c(N3CCN(Cc4ccccc4)CC3)nc3ccccn3c2=O)SC1=S
- GIV-Gai inh: 146
- HCMV NEC inh: -1

(54) CCc1nnc(NC(=O)CSc2nnc(NC(=O)c3cc(Cl)ccc3Cl)s2)s1
- GIV-Gai inh: 109
- HCMV NEC inh: .

(55) Cc1nc2cc3ccccc3cc2c(=O)[nH]1
- GIV-Gai inh: 108
- HCMV NEC inh: -68

(56) Cc1ccccc1Nc1cc2ccccc2c(=O)[nH]1
- GIV-Gai inh: 88
- HCMV NEC inh: 58*

(57) CN(C)CC1CCCCC1O (configuration not stated)
- GIV-Gai inh: .
- HCMV NEC inh: 16

(58) Nc1c2c3c(c(Cl)ccc3[nH]c1=O)C(=O)c1ccccc1-2
- GIV-Gai inh: 102
- HCMV NEC inh: .

(59) CCCCNc1c2c3c(cccc3[nH]c1=O)C(=O)c1ccccc1-2
- GIV-Gai inh: -48*
- HCMV NEC inh: -58

(60) O=C1c2ccccc2-c2c(NCCc3ccccc3)c(=O)[nH]c3cccc1c23
- GIV-Gai inh: -73*
- HCMV NEC inh: .

(61) O=C1c2ccccc2-c2c(Nc3ccccc3)c(=O)[nH]c3cccc1c23
- GIV-Gai inh: 111
- HCMV NEC inh: .

(62) CN(C)/C=c1\s/c(=C/C(=O)c2cccs2)[nH]c1=O
- GIV-Gai inh: 73*
- HCMV NEC inh: -91

(63) O=C(/C=c1/[nH]c(=O)/c(=C/c2ccccc2C(F)(F)F)s1)c1ccco1
- GIV-Gai inh: .
- HCMV NEC inh: -10

(64) Cc1cc(NC(=O)/C=C\c2ccccc2)nc2c1c(=O)oc1ccccc12
- GIV-Gai inh: 104
- HCMV NEC inh: .

(65) O=C(Nc1ccc(Cl)cc1)c1ccc(C2Nc3ccccc3S(=O)(=O)N2)cc1 (configuration not stated)
- GIV-Gai inh: 96
- HCMV NEC inh: .

(66) COc1cccc(CSc2nncn3c2cc2oc(C)cc23)c1
- GIV-Gai inh: 107
- HCMV NEC inh: -61

(67) C=Cc1c(C)c2cc3[nH]c(cc4nc(cc5nc(cc1[nH]2)C(C)=C5CCC(=O)O)C(CCC(=O)O)=C4C)c(C)c3C=C
- GIV-Gai inh: 106
- HCMV NEC inh: 86*

(68) O=C(O)CCc1nc2ccc(C(=O)O)cc2[nH]1
- GIV-Gai inh: 100
- HCMV NEC inh: .

(69) Cc1noc(C)c1COc1cccc(C(=O)OC2CCCCC2=O)c1 (configuration not stated)
- GIV-Gai inh: .
- HCMV NEC inh: -27

(70) Cc1nn(-c2ccc3nnc(C)n3n2)c2c1C(c1c(F)cccc1Cl)CC(=O)N2 (configuration not stated)
- GIV-Gai inh: 99
- HCMV NEC inh: .

(71) COc1ccc(CN2C(=O)NC(=O)/C(=C\c3cc(OC)ccc3OC)C2=O)cc1
- GIV-Gai inh: 112
- HCMV NEC inh: 83*

(72) COc1ccc(/C=C2/C(=O)NC(=O)N(c3ccc(Br)cc3)C2=O)c(OC)c1
- GIV-Gai inh: 107
- HCMV NEC inh: -3
